## Yeast mating assay B: variants of the scFv Ab-14

From the AlphaSeq antibody data of Li et al. 2023 (doi:10.1038/s41467-023-39022-2), copy in the FLAb collection.

The target is the same throughout: PDVDLGDISGINAS, from the HR2 region of SARS-CoV-2 spike.

Each scFv is VH, the linker GGGGSGGGGSGGGGS, VL, as in the parent Ab-14, and differs from it in the CDRs of the heavy chain only.
VH: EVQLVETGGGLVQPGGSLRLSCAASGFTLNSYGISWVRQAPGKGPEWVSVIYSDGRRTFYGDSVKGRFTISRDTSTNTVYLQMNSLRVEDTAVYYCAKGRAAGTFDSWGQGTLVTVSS
VL: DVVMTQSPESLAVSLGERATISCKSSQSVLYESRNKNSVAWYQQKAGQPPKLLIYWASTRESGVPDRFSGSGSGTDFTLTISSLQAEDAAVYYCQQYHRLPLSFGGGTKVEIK

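The starting antibody came from a phage panning campaign against this peptide. Designed CDR sequences, proposed from the first random library and measured here. Their group label is 14H_GP_Gen (GP: Gaussian process model; Gen: genetic algorithm; a sequence that several methods proposed may carry one label only). In AlphaSeq, yeast of one mating type display the scFv and yeast of the other type display the target. After mating in shaken culture at 30 °C for 16 h, diploids were selected and their barcode pairs sequenced. Scores were corrected for input abundance and mapped to Kd with protein pairs of known affinity run in the same pool. The assay was run in six technical replicates.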

Variants are written as CDR1, CDR2 and CDR3 of the heavy chain (limits as in the source). Parent: GFTLNSYGIS, VIYSDGRRTFYGDSVK, GRAAGTFDS.
The read-out is the apparent dissociation constant on a log10 scale (nM): the lower, the stronger.
Where no diploid with the target was found in that replicate, the entry reads "ND": below detection, most likely a poor binder, though not proof of it.
Nonspecific signal, from three strains lacking the peptide, appeared in 1% of pairings of all heavy chain designs, centred on 2.08 (5% of these signals below 0.84); values are not corrected for it. Also given: how often the same scFv was detected with the empty control strains, with their mean in brackets.
The parent sequence was in this pool as ten entries: three were never detected, three once, and four in most replicates, with averages from 0.34 to 2.37.
The authors' rule: three or more of the six replicates give a measured affinity, fewer mean a poor binder.
A sequence measured in both rounds can read differently, since the two assays cover different ranges.

{"CDR-H1": "GFHLNSYGIS", "CDR-H2": "VIYSDGRRTFYQDSVK", "CDR-H3": "GRTAGTFDS", "replicates, log10 nM": "1.50 / 1.33 / 1.99 / 1.03 / 2.52 / 1.58", "empty controls": "0/18"}
{"CDR-H1": "GFSLNSYGIS", "CDR-H2": "VIYSDGRRTFYGDQVK", "CDR-H3": "GWTAGTFDS", "replicates, log10 nM": "0.16 / 0.39 / 0.80 / 0.99 / 0.38 / 1.02", "empty controls": "0/18"}
{"CDR-H1": "GFSLNSYGIS", "CDR-H2": "VIYSDGRRTFYGDSVK", "CDR-H3": "GWQAGTFDS", "replicates, log10 nM": "0.84 / 1.29 / 1.44 / 0.80 / 1.69 / 2.56", "empty controls": "1/18 (2.64)"}
{"CDR-H1": "KFELNSYGIS", "CDR-H2": "VIYSDGRRTFYQDSVK", "CDR-H3": "GRTAGTFDS", "replicates, log10 nM": "1.66 / ND / 0.88 / ND / ND / ND", "empty controls": "0/18"}
{"CDR-H1": "SFDLNSYGIS", "CDR-H2": "VIYSDGRRTAYGDSVK", "CDR-H3": "GRTAGTFDS", "replicates, log10 nM": "0.09 / -0.35 / -0.61 / -0.45 / -0.08 / -0.20", "empty controls": "0/18"}
{"CDR-H1": "GFELNSYGIS", "CDR-H2": "VIYSDGRRTFYKDSVK", "CDR-H3": "GNAAGTFDS", "replicates, log10 nM": "0.25 / 2.18 / 0.44 / 0.37 / 0.06 / 0.45", "empty controls": "0/18"}
{"CDR-H1": "GFDLNSYGIS", "CDR-H2": "VIYSDGRRTFYGDSVK", "CDR-H3": "GKNAGTFDT", "replicates, log10 nM": "ND / 1.16 / 1.47 / 2.94 / 2.69 / 1.17", "empty controls": "0/18"}
{"CDR-H1": "GFQLNEYGIS", "CDR-H2": "VIYSDGRRTFYGDQVK", "CDR-H3": "GRQAGTFDS", "replicates, log10 nM": "ND / 0.53 / 2.03 / 0.19 / 1.39 / 1.38", "empty controls": "0/18"}
{"CDR-H1": "GFTLNEYGIS", "CDR-H2": "VIYSDGMRTFYGDSVK", "CDR-H3": "GRQAGTFDS", "replicates, log10 nM": "0.71 / 1.17 / 0.80 / 1.57 / 0.45 / 1.35", "empty controls": "0/18"}
{"CDR-H1": "SFDLNSYGIS", "CDR-H2": "VIYSDGRRTFYADSVK", "CDR-H3": "GKTAGTFDS", "replicates, log10 nM": "ND / ND / ND / ND / ND / ND", "empty controls": "0/18"}
{"CDR-H1": "GFELNSYGIS", "CDR-H2": "VIYSDGRRTAYGDSVK", "CDR-H3": "GRNAGTFDS", "replicates, log10 nM": "1.20 / 0.23 / 0.29 / 0.04 / 0.33 / 0.35", "empty controls": "0/18"}
{"CDR-H1": "PFDLNSYGIS", "CDR-H2": "VIYSDGRRTFYHDSVK", "CDR-H3": "GRTAGTFDS", "replicates, log10 nM": "ND / ND / -0.03 / 1.06 / 1.72 / ND", "empty controls": "1/18 (0.97)"}
{"CDR-H1": "GFDLNTYGIS", "CDR-H2": "VIYSDGRRTFYGDQVK", "CDR-H3": "GRTAGTFDS", "replicates, log10 nM": "-0.24 / -0.21 / -0.45 / -0.27 / -0.14 / -0.57", "empty controls": "0/18"}
{"CDR-H1": "GFDLNSYGIS", "CDR-H2": "VIYSDGRRTFYGDSVK", "CDR-H3": "GRMAGTFDT", "replicates, log10 nM": "0.44 / -0.17 / 0.23 / 0.24 / 0.19 / 0.19", "empty controls": "2/18 (2.48)"}
{"CDR-H1": "KFDLNSYGIS", "CDR-H2": "VIYSDGRRTFYGDSVK", "CDR-H3": "GRTAGTFDD", "replicates, log10 nM": "ND / 1.57 / ND / ND / 0.61 / ND", "empty controls": "0/18"}
{"CDR-H1": "GFDLNSYGIS", "CDR-H2": "VIYSDGRRTFYGDSVK", "CDR-H3": "GQEAGTFDT", "replicates, log10 nM": "0.41 / 0.05 / -0.34 / -0.20 / -0.30 / 0.27", "empty controls": "0/18"}
{"CDR-H1": "GFNLNSYGIS", "CDR-H2": "VIYSDGRRTFYKDSVK", "CDR-H3": "GKEAGTFDS", "replicates, log10 nM": "-0.41 / 0.23 / -0.70 / -0.87 / -0.04 / -1.02", "empty controls": "0/18"}
{"CDR-H1": "GFDLNSYGIS", "CDR-H2": "VIYSDGRRTFYGDKVK", "CDR-H3": "GQTAGTFDS", "replicates, log10 nM": "-0.02 / 0.07 / -0.11 / -0.13 / 0.11 / 0.06", "empty controls": "1/18 (2.03)"}
{"CDR-H1": "GFKLNSYGIS", "CDR-H2": "VIYSDGRRTFYGDSVK", "CDR-H3": "GKVAGTFDS", "replicates, log10 nM": "ND / 0.51 / 0.74 / 0.67 / 0.58 / 0.45", "empty controls": "0/18"}
{"CDR-H1": "GFSLNEYGIS", "CDR-H2": "VIYSDGRRTFYGDSVK", "CDR-H3": "GEAAGTFDT", "replicates, log10 nM": "0.09 / -0.12 / 0.63 / 0.29 / 0.13 / 0.65", "empty controls": "0/18"}
{"CDR-H1": "GFQLNEYGIS", "CDR-H2": "VIYSDGRRTFYGDSVK", "CDR-H3": "GRSAGTFDS", "replicates, log10 nM": "ND / ND / ND / ND / ND / ND", "empty controls": "0/18"}

For reference, 2 entries of the list once more:

{"CDR-H1": "GFQLNEYGIS", "CDR-H2": "VIYSDGRRTFYGDQVK", "CDR-H3": "GRQAGTFDS", "replicates, log10 nM": "ND / 0.53 / 2.03 / 0.19 / 1.39 / 1.38", "empty controls": "0/18"}
{"CDR-H1": "SFDLNSYGIS", "CDR-H2": "VIYSDGRRTFYADSVK", "CDR-H3": "GKTAGTFDS", "replicates, log10 nM": "ND / ND / ND / ND / ND / ND", "empty controls": "0/18"}